IC50 data for one molecule are collected here from ChEMBL document CHEMBL5532707, “SETDB1 as a cancer target: challenges and perspectives in drug design” (RSC Med Chem, 2024).

What is called IC50 is the concentration that gives 50% inhibition. High values mean a need for much substance, low ones inhibition by little substance.

The assay deals with T1, Histone-lysine N-methyltransferase EHMT1 (Homo sapiens, UniProt Q9H9B1).
T1 sequence (Q9H9B1 whole entry): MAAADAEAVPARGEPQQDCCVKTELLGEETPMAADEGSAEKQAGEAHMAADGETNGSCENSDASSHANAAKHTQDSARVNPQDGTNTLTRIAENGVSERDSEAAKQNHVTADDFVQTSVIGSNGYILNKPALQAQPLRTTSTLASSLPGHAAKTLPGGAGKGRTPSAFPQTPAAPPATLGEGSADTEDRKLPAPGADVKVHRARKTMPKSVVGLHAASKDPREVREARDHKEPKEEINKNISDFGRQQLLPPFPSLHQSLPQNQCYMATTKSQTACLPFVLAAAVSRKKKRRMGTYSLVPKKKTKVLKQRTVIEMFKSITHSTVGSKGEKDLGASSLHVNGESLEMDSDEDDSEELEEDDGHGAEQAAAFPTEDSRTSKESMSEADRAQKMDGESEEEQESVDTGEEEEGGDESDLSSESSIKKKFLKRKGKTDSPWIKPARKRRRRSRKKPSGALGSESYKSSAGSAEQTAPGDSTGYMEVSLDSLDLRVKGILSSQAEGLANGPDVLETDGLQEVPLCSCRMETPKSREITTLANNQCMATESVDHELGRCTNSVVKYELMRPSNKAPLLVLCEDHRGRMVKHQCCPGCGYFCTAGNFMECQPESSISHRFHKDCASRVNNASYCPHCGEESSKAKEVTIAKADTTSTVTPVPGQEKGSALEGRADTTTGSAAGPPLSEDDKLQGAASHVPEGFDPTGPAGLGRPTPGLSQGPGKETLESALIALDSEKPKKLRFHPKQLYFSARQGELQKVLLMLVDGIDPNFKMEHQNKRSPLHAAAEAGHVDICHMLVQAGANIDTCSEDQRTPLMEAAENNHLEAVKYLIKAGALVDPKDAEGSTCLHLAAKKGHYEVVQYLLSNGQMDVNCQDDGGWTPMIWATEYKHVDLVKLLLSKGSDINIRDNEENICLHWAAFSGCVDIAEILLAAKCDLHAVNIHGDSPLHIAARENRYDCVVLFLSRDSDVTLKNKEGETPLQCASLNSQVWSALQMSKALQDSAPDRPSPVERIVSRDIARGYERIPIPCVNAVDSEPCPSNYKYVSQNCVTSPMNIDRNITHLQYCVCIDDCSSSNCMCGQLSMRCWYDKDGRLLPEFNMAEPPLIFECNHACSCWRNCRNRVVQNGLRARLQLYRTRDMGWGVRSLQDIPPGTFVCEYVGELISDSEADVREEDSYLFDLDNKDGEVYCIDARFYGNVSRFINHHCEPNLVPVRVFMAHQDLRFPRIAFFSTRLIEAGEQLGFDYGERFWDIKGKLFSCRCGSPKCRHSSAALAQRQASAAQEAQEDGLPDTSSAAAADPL
Nature of the assay: Inhibition of GLP (610 to 917 residues ) (unknown origin) expressed in Escherichia coli BL21 using H3(1 to 20)cys as substrate and SAM as cosubstrate by spectrometry based analysis.

Structures are written as SMILES.

For the molecule `COc1cc2nc(N3CCCN(C)CC3)nc(NC3CCN(Cc4ccccc4)CC3)c2cc1OC`, the IC50 is 1700 nM.
